Laboratory results: patent US20120107275A1, “FUSED HETEROCYCLIC DERIVATIVES AND METHODS OF USE” (Amgen Inc., priority 2006, published 2012)

Chains of the proteins cited; added tags and fusions are not shown. Residues count along the entry.
UniProt P08581, 1058-1365: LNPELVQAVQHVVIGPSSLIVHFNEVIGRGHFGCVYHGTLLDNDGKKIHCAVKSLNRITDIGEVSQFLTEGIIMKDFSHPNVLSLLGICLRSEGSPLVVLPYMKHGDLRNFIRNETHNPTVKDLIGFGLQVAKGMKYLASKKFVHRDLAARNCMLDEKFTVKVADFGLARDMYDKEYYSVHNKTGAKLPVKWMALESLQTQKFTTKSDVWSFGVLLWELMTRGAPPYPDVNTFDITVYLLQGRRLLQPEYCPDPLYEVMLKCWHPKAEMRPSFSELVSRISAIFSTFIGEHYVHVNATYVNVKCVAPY

Biological target: T1, c-Met kinase domain (GST-cMet) (Homo sapiens, UniProt P08581)
T1 construct: A PCR product covering residues 1058-1365 of c-Met (c-Met kinase domain); made in house; host or cells: High5 insect cells (baculovirus, BacToBac)
Experiment: c-Met receptor assay (HTRF kinase assay with GST-cMet (P) enzyme, gastrin and ATP)
Format: biochemical
Conditions: illustrative activity values
Description: Cloning, Expression and Purification of c-Met Kinase Domain
The PCR product is cloned into a modified pFastBac1 expression vector (harboring the gene for S. japonicum glutathione S-transferase immediately upstream of the multiple cloning site) using standard molecular biological techniques. The GST-c-Met kinase domain fusion (GST-Met) gene is transposed into full-length baculovirus DNA using the BacToBac™ system (Invitrogen). High5 cells are infected with the recombinant baculovirus for 72 h at 27° C. The infected cells are harvested by centrifugation and the pellet is stored at −80° C. […] Eluted fractions are analyzed by SDS-PAGE and concentrated to <10 mL (˜10 mg/mL total protein). […] The fractions are analyzed by SDS-PAGE and the appropriate fractions are pooled and concentrated to ˜1 mg/mL. […]
The resin is washed with 10 column volumes (100 mL) of Lysis Buffer. […] Fractions with significant OD280 readings are run on another 12% Tris Glycine gel. The peak tubes with GST-cMET are pooled and the OD280 is read with the column buffer listed above as the blank buffer. […]
After incubation, the solution is concentrated in a Vivaspin 20 ml Concentrator to a volume less than 2.00 ml. […] Fractions are pooled and the OD280 is read with the column buffer used as the blank. […]
KM ATP, KM gastrin for various enzymes were determined by HTRF/^33P labeling and HTRF methods.

## Cn1cc(-c2ccc3onc(C(F)(F)c4ccc5ncccc5c4)c3n2)cn1 [Example 440, 6-(difluoro(5-(1-methyl-1H-pyrazol-4-yl)isoxazolo[4,5-b]pyridin-3-yl)methyl)quinoline]
  Ki: 172 nM
